For this assay, the system named is Bacteroides ovatus GUS (BoGUS). The conditions noted are these: pNPG as substrate; optimal pH 5.0; apparent value estimated at low pNPG concentrations.

The structures appear in SMILES notation.

As usually defined, the Km is the concentration of substrate that gives half-maximal velocity. Turning to `O=C(O)[C@H]1O[C@@H](Oc2ccc([N+](=O)[O-])cc2)[C@H](O)[C@@H](O)[C@@H]1O` [pNPG, p-nitrophenol-β-D-glucuronide], the Km is 1380 ± 10 µM and the “kcat (s^−1)” value is 0.48 ± 0.03^b s^−1.
